In the test the target is T1, HER2 protein (R&D Systems, Inc., catalog number: 1129-ER) (UniProt P04626, in part).
T1 construct: Bought protein coated on the ELISA plate
Put plainly: ELISA, HER2 protein coated, His-tagged Fab titrated, HRP anti-His detection. The text has this:
HER2 protein (R&D Systems, Inc., catalog number: 1129-ER) was used as an antigen for a human anti-HER2 antibody. Humulin R U-100 (Eli Lilly and Company) was used as an antigen for a mouse anti-insulin antibody. CD80 protein (R&D Systems, Inc., catalog number: 140-B1) was used as an antigen for a rabbit anti-CD80 antibody. As antibodies for detection, the wild type and the heavy-chain mutant type (10-110) of the humanized anti-HER2 antibody (Fab), the wild type and the heavy-chain mutant type (9-109) of the mouse anti-insulin antibody (Fab), and the wild type and the heavy-chain mutant type (9-109) of the rabbit anti-CD80 antibody (Fab) were used. A histidine tag was added to these antibodies for detection (Fabs). Each antibody for detection was stepwise diluted with 1% BSA-containing PBS to obtain a plurality of Fab solutions with different concentrations.
Each antigen was diluted with PBS (pH 7.4) to prepare a solution of each antigen. The solution of each antigen was added to wells of a MaxiSorp (trademark) flat bottom plate (Thermo Fisher Scientific, Inc.). The mixture was allowed to stand overnight at 4° C. The antigen solution was removed, and a blocking solution (1% BSA-containing PBS) was added to each well to perform blocking. […] After washing, a solution of an ABST substrate (Thermo Fisher Scientific Inc.) was added to each well, and absorbance at 450 nm was measured.
A general note: In an ELISA, binding on a coated surface is turned into a signal by an enzyme label.

B1: heavy-chain mutant type (10-110) of the humanized anti-HER2 antibody (Fab) (Fab, V domains shown)
VH: [letters of about 120 residues left out]
VL: DIQMTQSPSSLSASVGDRVTITCRASQDVNTAVAWYQQKPGKAPKLLIYSASFLYSGVPSRFSGSRSGTDFTLTISSLQPEDFATYYCQQHYTTPPTFGQGTKVEIKR
notes: Tested as a Fab with an added histidine tag; The light chain is unmodified
Take B1: the binding result is reported as “binds”.

The record behind these values is patent US20210347910A1 (SYSMEX, published 2021).
